Bioassay records deposited in PubChem BioAssay by several laboratories.
An excerpt weighted towards active compounds, which were near 0.91% of everything screened.
PGC1a acetyl inh = PGC1a acetylation modulation, inhibitor mode; AID 651687; actives 0.17% (n = 350,000); U2OS PGC1a acetylation, AlphaScreen anti-acetyl-lysine; with virally co-expressed GCN5 acetyltransferase; inhibition, % at 15.6 µM;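 active = every replicate shows inhibition of at least 40%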
FN deposition inh = fibronectin deposition inhibition; AH1F fibroblasts, Alexa488-fibronectin deposition fluorescence, overnight; inhibition, % at 12.6 µM; actives 0.086% (n = 350,000);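 active = mean inhibition across replicates of 30% or more, regardless of how many single replicates reach that level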
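Schedule: 1 h cell adhesion before compound, then overnight fibronectin incubation; test system: AH1F fibroblast monolayer depositing Alexa488-labelled fibronectin into matrix; quantity: 10000 AH1F cells per well; probe or stimulus: fluorescent fibronectin at 24 nM final; signal: fluorescence, ex 485 nm, em 525 nm; evaluation: percent inhibition as loss of matrix-bound fibronectin fluorescence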
iPSC survival up = enhancers of human iPSC single-cell survival. hiPSC single-cell survival, ATPlite luminescence; 100% = ROCK inhibitor wells, 0% = DMSO. actives 0.044% (n = 360,000). survival enhancement, % at 20 µM; in the data active = survival enhancement above about 18%;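 also: cells exposed to compounds for 16 hours before the ATP read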
C2C12 statin = protects C2C12 myotubes from simvastatin toxicity; ATP luminescence, 48 h; scaled: DMSO 0, geranylgeraniol control 100; rescue of ATP level, % at 7.49 µM; actives 0.78% (n = 330,000); AID 602340;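 active = mean ATP rescue above about 67%, or every replicate alone reaching that limit, limit read from the data, passing the limit was not always enough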;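 also: myotubes were challenged with 10 µM simvastatin during compound exposure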
UUG fidelity = alters start codon recognition fidelity in yeast | S. cerevisiae UUG-firefly luciferase reporter, luminescence/redox ratio | activity score, % at 18.7 µM | hit rate 0.13% among 350,000 | AID 602363;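 active means replicate mean at a twofold rise or more, about +100% in these data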;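 further: firefly luciferase made from a UUG start codon reports start codon fidelity; reporter light over untreated wells divided by growth signal over untreated wells; some hits fall short of that in this replicate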
Large screens that a line does not name were inactive; ! = a repeat was not active.

CCOc1ccc(CNn2nnnc2N)cc1	C2C12 statin 119
O=C(Nc1ccccc1F)N1CC2(C1)[C@H](c1ccccc1)[C@H](CO)N2C(=O)CC1CC1	none (no result: FN deposition inh, iPSC survival up, C2C12 statin, UUG fidelity)
Cc1c(O)nc(SC2CC(=O)N(c3ccccc3)C2=O)[nH]c1=O (stereo unspecified)	none (no result: PGC1a acetyl inh, C2C12 statin)
CCc1c(O)nc(SC2CC(=O)N(c3ccccc3)C2=O)[nH]c1=O (stereo unspecified)	C2C12 statin 106 (no result: FN deposition inh)
C=CCSc1nnc(NC(=O)COc2ccccc2)s1	FN deposition inh 34 (no result: PGC1a acetyl inh, C2C12 statin, UUG fidelity)
C=CCSc1nnc(NC(=O)COc2ccc3ccccc3c2)s1	none (no result: FN deposition inh)
CCCNC(=O)C[C@H]1CC[C@@H]2[C@H](COC[C@@H](O)CN2Cc2ccccc2F)O1	none (no result: iPSC survival up, UUG fidelity)
COc1ccccc1C(NC(C)=O)c1cc(Cl)c2cccnc2c1O (stereo unspecified)	PGC1a acetyl inh 46
COc1ccc(C(NC(C)=O)c2cc(Cl)c3cccnc3c2O)cc1OC (stereo unspecified)	none (no result: C2C12 statin, UUG fidelity)
Nc1ccc2c3c(cccc13)-c1ccccc1-2	C2C12 statin 126
COc1ccc(C2CC(c3c(O)cc(C)oc3=O)=NCCS2)c(OC)c1 (stereo unspecified)	C2C12 statin 117
Cc1cc(O)c(C2=Nc3ccccc3SC(c3ccc(Cl)cc3)C2)c(=O)o1 (stereo unspecified)	none (no result: PGC1a acetyl inh, C2C12 statin, UUG fidelity)
CCOc1ccc(S(=O)(=O)NCC(=O)N(C)Cc2cccnc2)cc1	C2C12 statin 109 (no result: FN deposition inh)
CCOc1ccc(NS(=O)(=O)c2ccc(C(=O)NCc3cccnc3)cc2)cc1	none (no result: PGC1a acetyl inh, UUG fidelity)
CCCNC(=O)N(C)C[C@H]1Oc2ncc(-c3cccc(C#N)c3)cc2C(=O)N([C@H](C)CO)C[C@H]1C	none (no result: FN deposition inh, iPSC survival up)
O=C1c2ccccc2C(=O)N1CN(C(=O)COc1ccccc1)c1ccc(F)cc1	C2C12 statin 114
C[C@@H]1CN([C@@H](C)CO)C(=O)c2cc(NC(=O)Nc3ccc4c(c3)OCO4)ccc2O[C@@H]1CN(C)C(=O)Nc1cccc2ccccc12	none (no result: FN deposition inh, iPSC survival up)
O=C(NC1CCCCCCC1O)c1ccccc1 (stereo unspecified)	PGC1a acetyl inh 57 (no result: UUG fidelity)
O=C(NC1CCCCC1c1ccccc1)c1ccccc1 (stereo unspecified)	none (no result: PGC1a acetyl inh, C2C12 statin, UUG fidelity)
O=C(Nc1ccc(F)cc1)N1CC(=O)N2[C@H](CO)[C@H](c3ccc(-c4ccc(F)cc4)cc3)[C@H]2C1	none (no result: FN deposition inh, iPSC survival up, C2C12 statin, UUG fidelity)
COc1ccc(NC(=O)/C(Cl)=C(/Cl)S(=O)(=O)Cc2ccc(C)cc2)cn1	iPSC survival up 23 (no result: FN deposition inh)
Cc1onc(-c2ccncc2)c1C(=O)O	C2C12 statin 106 (no result: FN deposition inh)
C[C@H]1CN([C@@H](C)CO)S(=O)(=O)c2ccc(C#CC3CC3)cc2O[C@H]1CN(C)S(C)(=O)=O	none (no result: iPSC survival up)
C[C@H](CO)N1C[C@H](C)[C@H](CN(C)S(=O)(=O)c2cccs2)Oc2ccc(NC(=O)Cc3cn(C)c4ccccc34)cc2C1=O	C2C12 statin 104 (no result: FN deposition inh, iPSC survival up)
C[C@@H]1CN([C@@H](C)CO)C(=O)c2cc(NC(=O)Cc3cn(C)c4ccccc34)ccc2O[C@H]1CN(C)S(=O)(=O)c1cccs1	C2C12 statin 111 (no result: FN deposition inh, iPSC survival up)
CC(C)NC(=O)Nc1ccc2c(c1)CC(=O)N([C@@H](C)CO)C[C@@H](C)[C@H](CN(C)Cc1ccc(Oc3ccccc3)cc1)O2	none (no result: FN deposition inh, iPSC survival up)
CCN1C(=O)C(C)S/C1=N\S(=O)(=O)c1ccc(Cl)s1 (stereo unspecified)	C2C12 statin 136 (no result: FN deposition inh)
CC(C)C(NC(=O)C1CCCCC1)C(=O)Nc1ccncc1 (stereo unspecified)	C2C12 statin 124 (no result: FN deposition inh)
CC(C)C(NC(=O)C1CCCCC1)C(=O)Nc1ccc2c(c1)OCCO2 (stereo unspecified)	none
CCC(CC)NC(=O)c1cc2c(C)nn(Cc3ccccc3Cl)c2s1	none (no result: FN deposition inh, UUG fidelity)
Cc1nn(Cc2ccccc2Cl)c2sc(C(=O)NCc3ccc4c(c3)OCO4)cc12	C2C12 statin 126 (no result: FN deposition inh)
CCOc1cc(/C=C2\C(=O)N(c3ccc(C(N)=O)cc3)N=C2C)ccc1OC(=O)c1cccs1	C2C12 statin 103 (no result: FN deposition inh)
O=C(c1cccc(F)c1)N1CCCCN2[C@H](CO)[C@H](c3ccc(-c4ccc(F)cc4)cc3)[C@H]2C1	none (no result: FN deposition inh, iPSC survival up, C2C12 statin)
CO[C@H]1CN(C)C(=O)c2cc(NC(=O)c3ccccc3F)ccc2OC[C@H](C)N(CC2CCOCC2)C[C@@H]1C	none (no result: iPSC survival up, UUG fidelity)
C[C@@H]1CN([C@@H](C)CO)C(=O)Cc2cc(NS(=O)(=O)c3cn(C)cn3)ccc2O[C@H]1CN(C)Cc1ccc(C(=O)O)cc1	none (no result: FN deposition inh, iPSC survival up)
Cc1noc(C)c1NC(=O)N(C)C[C@@H]1Oc2c(NC(=O)Nc3ccc4c(c3)OCO4)cccc2C(=O)N([C@@H](C)CO)C[C@@H]1C	none (no result: FN deposition inh, iPSC survival up)
C[C@@H]1CN([C@H](C)CO)C(=O)c2cccc(NC(=O)c3nc4ccccc4s3)c2O[C@@H]1CN(C)C(=O)Nc1cccc2ccccc12	C2C12 statin 81 (no result: iPSC survival up)
C[C@@H]1CN([C@H](C)CO)C(=O)c2cccc(NC(=O)c3ccc(-c4nccs4)cc3)c2O[C@@H]1CN(C)Cc1ccc(C(F)(F)F)cc1	none (no result: FN deposition inh, iPSC survival up)
Cc1noc(C)c1NC(=O)Nc1cccc2c1O[C@H](CN(C)Cc1ccccc1)[C@@H](C)CN([C@H](C)CO)C2=O	none (no result: PGC1a acetyl inh, FN deposition inh, iPSC survival up)
C[C@@H]1CN([C@@H](C)CO)C(=O)c2cccc(NC(=O)c3ccc(-c4nccs4)cc3)c2O[C@@H]1CN(C)Cc1ccc(C(F)(F)F)cc1	C2C12 statin 74 (no result: FN deposition inh, iPSC survival up)
Cc1noc(C)c1NC(=O)Nc1cccc2c1O[C@H](CN(C)Cc1ccc(-c3ccccc3)cc1)[C@@H](C)CN([C@H](C)CO)C2=O	C2C12 statin 78 (no result: FN deposition inh, iPSC survival up)
Cc1noc(C)c1NC(=O)N(C)C[C@H]1Oc2c(NC(=O)Nc3ccc4c(c3)OCO4)cccc2C(=O)N([C@H](C)CO)C[C@@H]1C	C2C12 statin 83!
CO[C@@H](CN(C)CC1CCOCC1)[C@H](C)CN(C(=O)Nc1ccc(F)cc1)[C@@H](C)CO	none (no result: iPSC survival up, UUG fidelity)
C[C@H](CO)N1C[C@H](C)[C@H](CN(C)Cc2ccc(C(F)(F)F)cc2)Oc2c(NC(=O)Nc3cccc4ccccc34)cccc2C1=O	C2C12 statin 81 (no result: FN deposition inh, iPSC survival up)
Oc1ccc(C=Nc2ccc(N3CCOCC3)cc2)c(O)c1	PGC1a acetyl inh 64 (no result: C2C12 statin)
Oc1c(Cl)cc(Cl)cc1C=Nc1ccc(N2CCOCC2)cc1	none
COc1ccc2nc3cc(Cl)ccc3c(Nc3cc(CN4CCCC4)c(O)c(CN4CCCC4)c3)c2n1	PGC1a acetyl inh 72
CCNC(=O)[C@@H]1[C@@H](CO)[C@@H]2Cn3c(cccc3=O)[C@H]1N2CCC(F)(F)F	none (no result: PGC1a acetyl inh, FN deposition inh, iPSC survival up, UUG fidelity)
CCCCCCCCC(=O)O	PGC1a acetyl inh 66 (no result: FN deposition inh)
Cc1ccc(S(=O)(=O)N(C)C[C@H]2Oc3ncc(-c4ccncc4)cc3C(=O)N([C@@H](C)CO)C[C@H]2C)cc1	none (no result: iPSC survival up)
CN(C)C(=O)c1cccc(-c2ccc([C@@H]3[C@@H](CO)N(C(=O)C4CC4)[C@H]3C#N)cc2)c1	none (no result: iPSC survival up, UUG fidelity)
CC1=CC(=O)C(C(C)C)=C/C1=N/OS(=O)(=O)c1ccccc1	FN deposition inh 33 (no result: C2C12 statin)
CC1=CC(=O)C=C(C)C1=NOS(=O)(=O)c1ccccc1	none (no result: FN deposition inh, C2C12 statin)
